System: deposited Aβ
Assay: Ex vivo target engagement, immunohistochemistry on brain sections from fixed PDAPP brain
Type: binding
Details: cryostat coronal sections from aged PDAPP mice (25-month old), test antibody 20 μg/mL
Source text: Secondary HRP reagents specific for human IgG are employed and the deposited plaques are visualized with DAB-Plus (DAKO). Biotinylated murine 3D6 antibody followed by Step-HRP secondary is used as a positive control. […] Aβ antibodies (Antibody I and Antibody II) engaged deposited Aβ target ex vivo.

B1: Antibody I: anti-N3pGlu Abeta antibody with LC of SEQ ID NO: 12 and HC of SEQ ID NO: 11 (antibody)
heavy: QVQLVQSGAEVKKPGSSVKVSCKASGYTFTDYYINWVRQAPGQGLEWMGWINPGSGNTKYNEKFKGRVTITADESTSTAYMELSSLRSEDTAVYYCTREGETVYWGQGTLVTVSSASTKGPSVFPLAPSSKSTSGGTAALGCLVKDYFPEPVTVSWNSGALTSGVHTFPAVLQSSGLYSLSSVVTVPSSSLGTQTYICNVNHKPSNTKVDKKV[human IgG1 Fc not listed]
light: DVVMTQSPLSLPVTLGQPASISCKSSQSLLYSRGKTYLNWFQQRPGQSPRRLIYDVSKLDSGVPDRFSGSGSGTDFTLKISRVEAEDVGVYYCVQGTHYPFTFGQGTKLEIKRTVAAPSVFIFPPSDEQLKSGTASVVCLLNNFYPREAKVQWKVDNALQSGNSQESVTEQDSKDSTYSLSSTLTLSKADYEKHKVYACEVTHQGLSSPVTKSFNRGEC
  labeling of deposited Aβ in PDAPP hippocampus: labeled a subset of deposits

B2: Antibody II: anti-N3pGlu Abeta antibody with LC of SEQ ID NO: 13 and HC of SEQ ID NO: 11 (antibody)
heavy: B1 heavy
light: DIQMTQSPSTLSASVGDRVTITCKSSQSLLYSRGKTYLNWLQQKPGKAPKLLIYAVSKLDSGVPSRFSGSGSGTEFTLTISSLQPDDFATYYCVQGTHYPFTFGQGTKLEIKRTVAAPSVFIFPPSDEQLKSGTASVVCLLNNFYPREAKVQWKVDNALQSGNSQESVTEQDSKDSTYSLSSTLTLSKADYEKHKVYACEVTHQGLSSPVTKSFNRGEC
  labeling of deposited Aβ in PDAPP hippocampus: labeled a subset of deposits
